The target in test [1] is T1, IL-23-stimulated phosphorylated STAT3 in peripheral blood mononuclear cells (PBMCs) (Homo sapiens, UniProt Q5VWK5).
T1 sequence (Q5VWK5 24-629): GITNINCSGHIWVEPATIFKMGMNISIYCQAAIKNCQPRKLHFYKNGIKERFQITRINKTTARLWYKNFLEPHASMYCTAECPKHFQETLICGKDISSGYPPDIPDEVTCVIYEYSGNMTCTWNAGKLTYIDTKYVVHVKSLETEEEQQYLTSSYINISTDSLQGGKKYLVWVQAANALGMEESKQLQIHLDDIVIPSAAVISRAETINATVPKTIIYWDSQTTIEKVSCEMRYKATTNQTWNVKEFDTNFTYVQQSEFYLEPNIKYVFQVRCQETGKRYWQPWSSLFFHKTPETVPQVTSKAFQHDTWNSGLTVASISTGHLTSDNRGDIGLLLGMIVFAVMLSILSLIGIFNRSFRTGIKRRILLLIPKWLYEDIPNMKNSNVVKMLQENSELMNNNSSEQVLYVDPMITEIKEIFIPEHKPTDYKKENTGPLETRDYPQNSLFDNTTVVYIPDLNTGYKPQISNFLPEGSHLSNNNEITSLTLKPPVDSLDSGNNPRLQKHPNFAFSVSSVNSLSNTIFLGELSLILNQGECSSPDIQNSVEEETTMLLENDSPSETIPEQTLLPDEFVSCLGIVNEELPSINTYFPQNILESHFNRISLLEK
The test is described as follows: PBMC pSTAT3 Assay. Type of test: cell-based. Conditions: read-out: PBMC pSTAT3 IC50, PBMCs from healthy donors, IL-23 5 ng/mL, 30 minutes. As for the experimental part: Cryopreserved peripheral blood mononuclear cells (PBMCs) from healthy donors were thawed and washed twice in ImmunoCult-XF T cell expansion medium (XF-TCEM) supplemented with CTL anti-aggregate wash. The cells were counted, resuspended at 2-6×10^5 cells per mL XF-TCEM supplemented with penicillin/streptomycin and 100 ng/mL IL-1β (BioLegend, 579404), and cultured in tissue culture flasks coated with anti-CD3 (eBioscience, 16-0037-85 or BD Pharmingen, 555329) at 37° C. in 5% CO2. On day 4 of culture, PBMCs were collected, washed twice in RPMI-1640 supplemented with 0.1% BSA (RPMI-BSA), and incubated in RPMI-BSA in upright tissue culture flasks for ˜4 hours at 37° C. in 5% CO2. Following this ‘starvation,’ a total of 6×10^4 cells in 30 μL RPMI-BSA was transferred into each well of a 384-well plate pre-spotted with peptide or DMSO. The cells were incubated for 30 minutes prior to the addition of IL-23 at a final concentration of 5 ng/mL. The cells were stimulated with cytokine for 30 minutes at 37° C. in 5% CO2, transferred onto ice for 10 minutes, and lysed. Cell lysates were stored at −80° C. until phosphorylated STAT3 was measured using the phospho-STAT panel kit (Meso Scale Discovery, K15202D).

The target in another test is T2, IL-23R (Homo sapiens, UniProt Q5VWK5).
T2 construct: host or cells: HEK293
T2 sequence (Q5VWK5 24-629): T1 sequence (Q5VWK5 24-629)
The test can be described thus: IL23R Reporter Assay. In kind it is cell-based. Conditions: HEK293 cells containing IL-23R, IL-12Rβ1 and STAT-inducible luciferase reporter; 10 ng/mL IL-23; 5 h. As for the experimental part:
Compounds were serially diluted in 100% (v/v) DMSO) and plated using an Echo acoustic dispenser (Labcyte) into 1536-well non-treated black assay plates (Corning #9146). 3 μL of HEK293 cells containing IL-23R, IL-12Rβ1 and a firefly luciferase reporter gene driven by a STAT-inducible promoter (Promega) were added to the plates (4000 cells/well), followed by 3 μL of 10 ng/mL IL-23 (equivalent to EC90 concentration). After 5 h at 37° C., 5% CO2, 95% relative humidity, cells were placed at 20° C. and treated with BioGlo reagent (Promega) according to the Manufacturer's instructions. Luminescence was measured on a Pherastar FSX (BMG LabTech). Data were normalized to IL-23 treatment (0% inhibition) and 30 μM of control inhibitor (100% inhibition), and IC50 values were determined using a 4-parameter Hill equation.
A general note: Reporter assays use an easily measured gene product as a stand-in for the process of interest.

As to “MeCO-r-Pen(3)-N-T-7MeW-K(Ac)-Pen(3)-AEF-6OH2Nal-THP-E-N-3Pya-Sar-CONH2 [SEQ ID NO: 442]”, the IC50 in test [1] is under 0.01 nM; against IL-23R, under 10 nM.

“PEG2NMe(2)-Pen(3)-N-T-7MeW-K(NMeAc)-Pen(3)-AEF-6OH2Nal-THP-hE(2)-N-3Pya-Sar-CONH2 [compound 358]”: the IC50 in test [1] is under 0.01 nM; at IL-23R, under 10 nM.

The values above are taken from US20240279281A1, “Peptide Inhibitors of Interleukin-23 Receptor” (Janssen Pharmaceutica NV, priority 2023, published 2024).
